The target in the test is T1, rat nNOS (Rattus norvegicus, UniProt P29476).
T1 construct: made in house; host or cells: E. coli (plasmid pCWnNOS)
The test is described as follows: NOS enzyme inhibitory assay (hemoglobin capture), nNOS. Conditions: Table 1b. It is filed as biochemical.

We go through three compounds from patent US7994326B2 (Northwestern University, priority 2003, dated 2011).

pKi: −log10 of the molar value.

For the compound `Cc1cc(N)nc(C[C@H]2CNC[C@H]2NCCNCCc2ccccc2)c1` (racemic) [Compound P-62], the pKi (as a rule, the negative decadic logarithm of the Ki, by convention in mol/L) was 7.62.
Then `Cc1cc(N)nc(C[C@H]2CNC[C@@H]2NCCNCCc2ccccc2)c1` (racemic) [Compound P-67], with 7.06; and `Cc1cc(N)nc(C[C@H]2CNC[C@H]2OCC(=O)NCCc2cccc(F)c2)c1` (racemic) [Compound P-79, (±)-2-{cis-4-[(6-amino-4-methylpyridin-2-yl)methyl]pyrrolidin-3-yloxy}-N-(3-fluorophenethyl)acetamide], with 5.64.
